# Experiments:
# Assay type in all cases: cell-based
# [1] = tested on: HER2 positive NCI-N87 cells; test: Antibody mediated internalization in HER2 expressing tumor cells, FACS; details: 100 nM
# From the text: (§1) The HER2 positive cell lines SKBR-3 cells and NCI-N87 cells and the test anti-HER2 ADCs (exemplary anti-HER2 ADCs ADC-2-1, ADC-2-2 and ADC-3, and the positive control ADCs DS-8201a and T-DM1) as used in Example 18 were also used in the following internalization assay. The culture conditions of two cell lines are the same as in Example 18.
# (§2) Cells were harvested with 0.25% Trysin/EDTA (Tl 320, Solarbio) and adjusted the cell concentration to 4×10^6 cells/mL with 1×PBS containing 1% FBS buffer. 100 μL cells per well were then plated in the 96-well cell culture plates and incubated with Trastuzumab and the test anti-HER2 ADCs at a final concentration 100 nM for seven time points (0, 0.5, 2, 4, 8, 16, and 24 hours). The mixtures were incubated at 4° C. in an atmosphere of 5% CO2 in air. At specific time points, cells were immediately washed twice and suspended in 100 μL cold wash buffer containing 2% paraformaldehyde for 30 mins. Cells were washed twice and then incubated with 1×PE anti-human IgG Fc Antibody (Cat. No. 366904, Biolegend) at 4° C. and 5% CO2 for another one hour. After the two-step washing by washing buffer, cells were re-suspended in 100 μL FACS buffer, CytoFlex Cytometry (Beckman Coulter) was used to detect the fluorescent signals of cells. The internalization ratio at several time points were calculated as the missing rate of median fluorescence intensity (MFI) values at specific time point in that at 0 hours. Curves of internalization rate versus incubation time (hours) were plotted with the Graphpad Prism Software.
# [2] = tested on: HER2 positive SKBR-3 cells; test: as above; details: 100 nM
# From the text: as §1, §2
# NCI-N87 cells = test: In vitro cytotoxic assay of anti-HER2 ADCs (CellTiter-Glo); details: 72-hour incubation, FIG. 3
# Protocol: (§3) Cytotoxicity of exemplary anti-HER2 ADCs was investigated using SKBR-3 cells (Breast cancer, ATCC No. HTB30) and NCI-N87 cells (Gastric cancer, ATCC No. CRL-5822) and compared to the positive control ADCs DS-8201a and T-DM1.
# (§4) In brief, 5,000 cells/well of SKBR-3 cells and NCI-N87 cells were platted in white clear 96-well assay plates (Cat. No. 6005182, PerkinElmer) (excluding edge wells, which contained medium only) in 90 μL basic culture medium (McCoy's 5a medium for SKBR-3 cells and RPMI-1640 medium for NCI-N87 cells) containing 10% FBS, 1% Penicillin-Streptomycin Solution (BL505A, Biosharp Life Sciences), and 2 mM L-Glutamine (Cat. No. 25030081, ThermoFisher) and were grown at 37° C. in a humidified incubator at 5% CO2 atmosphere. After incubation overnight, each test anti-HER2 ADC or Trastuzumab was added to the respective wells in an amount of 10 μL of 10-concentrate tests from 100 nM to 0.015 nM. After additional 72-hour incubation, plates were removed from incubator and equilibrated to room temperature. […] After shaking the plates at 450 rpm for 3 mins followed by 10-min incubation without shaking, luminescence was measure on the Envision plate reader (Equipment No. 2104, PerkinElmer) with integration time of 250 ms per well. Curves of luminescence versus ADC concentration (μM) were fitted with GraphPad Prism Software.
# SKBR-3 cells = test: as above; details: 72-hour incubation, FIG. 3
# Protocol: as §3, §4
Substance,MFI value of internalization assay ([1]; 0 h),MFI value of internalization assay ([1]; 0.5 h),MFI value of internalization assay ([1]; 2 h),MFI value of internalization assay ([1]; 4 h),MFI value of internalization assay ([1]; 8 h),MFI value of internalization assay ([1]; 16 h),MFI value of internalization assay ([1]; 24 h),MFI value of internalization assay ([2]; 0 h),MFI value of internalization assay ([2]; 0.5 h),MFI value of internalization assay ([2]; 2 h),MFI value of internalization assay ([2]; 4 h),MFI value of internalization assay ([2]; 8 h),MFI value of internalization assay ([2]; 16 h),MFI value of internalization assay ([2]; 24 h),cytotoxic activity (NCI-N87 cells),cytotoxic activity (SKBR-3 cells)
DS-8201a,470434.6,485012.7,453325.2,399661.6,361668.5,357611.1,312219.9,111493.1,84105.2,91504.5,59683.6,55324.7,48587.4,37770,,
"Trastuzumab: native antibody Trastuzumab (Genentech (Roche)), free antibody control",494263.3,505817.1,523528.4,412925.1,398055.9,408260.5,347311,114620.8,80551.7,88422.6,66067.7,53596.8,61201.3,43793.5,only limited cytotoxic activity even at high concentrations,only limited cytotoxic activity even at high concentrations
